Measured values as given in article PMC10033663, “Acute pharmacological profile of 2C-B-Fly-NBOMe in male Wistar rats—pharmacokinetics, effects on behaviour and thermoregulation” (Frontiers in Pharmacology, 2023).

Assay: Solubility on preparing the dosing solution
Settings: highest dose; deionized water and 20 μl of Tween 20

Structure (SMILES): COc1ccccc1CNCCc1c2c(c(Br)c3c1OCC3)OCC2 [2C-B-Fly-NBOMe]
- solubility: poor solubility
